Experimental data as given in patent US10172831B2, “Catalytic scavengers of organophosphates to potentiate butyrylcholinesterase (hBChE) as a catalytic bioscavenger and methods for making and using them” (dated 2019).

The chains behind the UniProt entries cited, without tags or fusion partners. Residues count along the entry.
UniProt P22303, 32-578 limits assumed: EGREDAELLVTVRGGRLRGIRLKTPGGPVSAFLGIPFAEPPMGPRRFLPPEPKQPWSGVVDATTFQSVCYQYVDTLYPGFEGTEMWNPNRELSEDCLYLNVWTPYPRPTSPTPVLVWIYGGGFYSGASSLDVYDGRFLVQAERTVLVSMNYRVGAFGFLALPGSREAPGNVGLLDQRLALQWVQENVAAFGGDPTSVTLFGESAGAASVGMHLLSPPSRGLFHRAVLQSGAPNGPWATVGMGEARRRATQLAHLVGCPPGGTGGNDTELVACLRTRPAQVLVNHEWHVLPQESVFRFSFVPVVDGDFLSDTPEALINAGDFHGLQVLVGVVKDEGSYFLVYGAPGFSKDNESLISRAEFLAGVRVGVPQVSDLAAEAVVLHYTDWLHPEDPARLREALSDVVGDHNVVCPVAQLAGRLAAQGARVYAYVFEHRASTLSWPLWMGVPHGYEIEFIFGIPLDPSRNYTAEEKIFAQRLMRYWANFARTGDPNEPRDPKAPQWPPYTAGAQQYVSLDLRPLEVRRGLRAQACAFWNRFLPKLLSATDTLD

Target: OP-hAChE conjugates (Homo sapiens, UniProt P22303)
Assay: Reactivation of OP-hAChE conjugates by 0.67 mM oxime (kobs)
Conditions: cyclosarin-hAChE conjugate

## C[n+]1ccn(CCCc2ccccc2)c1C=NO.[I-]
  cyclosarin hAChE reactivation rate compared to 2PAM: comparable to 2PAM
